Active and inactive are the calls of the source. No cut-off for these calls is given here.
Tests used:
[1] = species: Macaca fascicularis; assay: Inhibition of cynomolgus monkey neutrophil PR3 assessed as inactivation rate constant using ABZ-VADnVADYQ-EDDnp as substrate after 20 mins by FRET assay
[2] = target: T1, Myeloblastin (Homo sapiens) (UniProt P24158); assay: Inhibition of human PR3 assessed as inactivation rate constant at 0.15 uM using ABZ-VADnVADYQ-EDDnp as substrate by FRET assay
T1 sequence (whole entry): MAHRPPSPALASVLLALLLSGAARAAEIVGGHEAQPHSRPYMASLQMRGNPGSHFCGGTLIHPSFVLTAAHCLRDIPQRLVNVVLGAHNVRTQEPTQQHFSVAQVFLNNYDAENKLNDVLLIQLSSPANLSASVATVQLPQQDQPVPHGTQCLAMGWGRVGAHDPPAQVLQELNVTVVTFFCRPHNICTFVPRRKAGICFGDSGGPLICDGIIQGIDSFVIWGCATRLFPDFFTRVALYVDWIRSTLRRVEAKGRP

[3] = target: T2, Neutrophil elastase (Homo sapiens) (UniProt P08246); assay: Inhibition of human NE assessed as inactivation rate constant at using ABZ-APEEIMRRQ-EDDnp as substrate by FRET assay
T2 sequence (whole entry): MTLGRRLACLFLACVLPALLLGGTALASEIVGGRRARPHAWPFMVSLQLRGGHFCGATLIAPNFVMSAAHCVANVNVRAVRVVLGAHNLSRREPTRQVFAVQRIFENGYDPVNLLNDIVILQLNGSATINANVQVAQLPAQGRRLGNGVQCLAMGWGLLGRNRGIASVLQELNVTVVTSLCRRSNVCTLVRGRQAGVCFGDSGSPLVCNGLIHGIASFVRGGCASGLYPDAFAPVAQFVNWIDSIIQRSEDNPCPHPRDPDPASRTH

[4] = target: T1, Myeloblastin (Homo sapiens); assay: Inhibition of human PR3 assessed as inactivation rate constant at 0.025 uM using ABZ-VADnVADYQ-EDDnp as substrate by FRET assay
[5] = target: T1, Myeloblastin (Homo sapiens); assay: Inhibition of human PR3 assessed as inactivation rate constant at 0.6 uM using ABZ-VADnVADYQ-EDDnp as substrate by FRET assay
[6] = target: T1, Myeloblastin (Homo sapiens); assay: Inhibition of human PR3 assessed as inactivation rate constant at 0.1 uM using ABZ-VADnVADYQ-EDDnp as substrate by FRET assay

Structure (SMILES)	inhibition [1]	K [2] [M⁻¹ s⁻¹]	K [3]	K [4] [M⁻¹ s⁻¹]	K [5] [M⁻¹ s⁻¹]	K [6] [M⁻¹ s⁻¹]
CC(C)C[C@H](NC(=O)CCCC[C@@H]1SC[C@@H]2NC(=O)N[C@@H]21)C(=O)N[C@@H](Cc1ccc(O)cc1)C(=O)N[C@@H](CC(=O)O)C(=O)NC(C)P(=O)(Oc1ccc(Cl)cc1)Oc1ccc(Cl)cc1 (some centres undefined)	Active	4370	inactive	–	–	–
CCCC[C@H](NC(=O)CCCC[C@@H]1SC[C@@H]2NC(=O)N[C@@H]21)C(=O)N[C@@H](Cc1ccc(O)cc1)C(=O)N[C@@H](CC(=O)O)C(=O)NC(C)P(=O)(Oc1ccc(Cl)cc1)Oc1ccc(Cl)cc1 (some centres undefined)	Active	–	inactive	10400	–	–
CC(NC(=O)[C@H](CC(=O)O)NC(=O)[C@H](Cc1ccc(O)cc1)NC(=O)[C@@H]1CCCN1C(=O)CCOCCOCCNC(=O)CCOCCOCCNC(=O)CCCC[C@@H]1SC[C@@H]2NC(=O)N[C@@H]21)P(=O)(Oc1ccc(Cl)cc1)Oc1ccc(Cl)cc1 (some centres undefined)	Active	–	inactive	–	274	–
CC[C@H](C)[C@H](NC(=O)CCCC[C@@H]1SC[C@@H]2NC(=O)N[C@@H]21)C(=O)N[C@@H](Cc1ccc(O)cc1)C(=O)N[C@@H](CC(=O)O)C(=O)NC(C)P(=O)(Oc1ccc(Cl)cc1)Oc1ccc(Cl)cc1 (some centres undefined)	Active	8700	inactive	–	–	–
CCCC(NC(=O)[C@H](CC(=O)O)NC(=O)[C@H](Cc1ccc(O)cc1)NC(=O)[C@@H]1CCCN1C(=O)CCCC[C@@H]1SC[C@@H]2NC(=O)N[C@@H]21)P(=O)(Oc1ccc(Cl)cc1)Oc1ccc(Cl)cc1 (some centres undefined)	Active	–	inactive	18600	–	–
CCC(NC(=O)[C@H](CC(=O)O)NC(=O)[C@H](Cc1ccc(O)cc1)NC(=O)[C@@H]1CCCN1C(=O)CCCC[C@@H]1SC[C@@H]2NC(=O)N[C@@H]21)P(=O)(Oc1ccc(Cl)cc1)Oc1ccc(Cl)cc1 (some centres undefined)	Active	–	inactive	–	–	4680
CC(NC(=O)[C@H](CC(=O)O)NC(=O)[C@H](Cc1ccc(O)cc1)NC(=O)[C@H](CCCOCc1ccccc1)NC(=O)CCCC[C@@H]1SC[C@@H]2NC(=O)N[C@@H]21)P(=O)(Oc1ccc(Cl)cc1)Oc1ccc(Cl)cc1 (some centres undefined)	Active	–	inactive	–	–	1740
CC(C)[C@H](NC(=O)CCCC[C@@H]1SC[C@@H]2NC(=O)N[C@@H]21)C(=O)N[C@@H](Cc1ccc(O)cc1)C(=O)N[C@@H](CC(=O)O)C(=O)NC(C)P(=O)(Oc1ccc(Cl)cc1)Oc1ccc(Cl)cc1 (some centres undefined)	Active	–	inactive	17400	–	–

Source: ChEMBL document CHEMBL4043286, “Exploiting the S4-S5 Specificity of Human Neutrophil Proteinase 3 to Improve the Potency of Peptidyl Di(chlorophenyl)-phosphonate Ester Inhibitors: A Kinetic and Molecular Modeling Analysis” (J Med Chem, 2018)
